Data published in ChEMBL document CHEMBL4837204, “Synthesis, biological, and photophysical studies of molecular rotor-based fluorescent inhibitors of the trypanosome alternative oxidase” (Eur J Med Chem, 2021).

Test system: HEK-293T
Assay: Cytotoxicity against HEK293T cells assessed as reduction in cell viability […] by resazurin dye based fluorescence assay
Conditions: human, 24 h

SMILES: O=[As]c1ccccc1 (stereo unspecified)
- CC50: 0.46 µM
